Results reported in patent US5013539A, “Method and composition for antagonism of sodium nitroprusside toxic effects” (dated 1991).

Key:
rats = assay: Sodium nitroprusside infusion in rats (hypotension, mortality); conditions: alpha-ketoglutaric acid added to sodium nitroprusside
Male ICR mice [1] = assay: Toxicity of alpha-ketoglutaric acid alone in animals
Male ICR mice [2] = assay: Effects of pretreatment regimen on the LD50 value of potassium cyanide in mice; conditions: group B alpha-ketoglutaric acid vs group A control
[3] = prior art; cited from earlier work

Molecule	effect on hypotension induced by sodium nitroprusside (rats)	lethality of alpha-ketoglutaric acid alone (Male ICR mice [1]; doses of 1, 2, and 4 grams per kilogram of body weight)	symptoms after alpha-ketoglutaric acid (Male ICR mice [1]; doses up to 2 g/kg)	Potency Ratio (LD50 of KCN, alpha-ketoglutaric acid pretreated over saline control) (Male ICR mice [2])	toxic effects of its own [3]
O=C(O)CCC(=O)C(=O)O	does not abate the hypotension	No lethality was observed	no symptoms more remarkable than lethargy	5.0 (4.5-5.5)	–
Cobalt edetate	–	–	–	–	atrial fibrillation, gastrointestinal hemmorrhage and anaphylactoid reactions
